Screening results: PubChem BioAssay, Broad Institute
Sampled rows, rich in hits. Any-hit rate of the full collection: about 2.2%.
ERp5 block – ERp5 (human) disulfide isomerase inhibition. Q15084. ERp5 insulin aggregation, absorbance 650 nm, 90 min. inhibition, % at 9.99 µM. 0.05% of 350,000 active;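 active = mean replicate inhibition above about 25%, with every replicate also reaching it, limit read from the data, passing the limit was not always enough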
PDI turbidity – inhibitors of human protein disulfide isomerase; 0.052% of 350,000 active; inhibition, % at 10 µM; PDI insulin aggregation turbidity, A650, 90 min; AID 588391; P07237;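 active = mean inhibition across replicates of 30% or more, whatever share of single replicates reach that level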
Yeast UUG start-1 – alters start codon recognition fidelity in yeast; AID 602363; activity score, % at 18.7 µM; 350,000 tested, 0.13% active; S. cerevisiae UUG-firefly luciferase reporter, luminescence/redox ratio;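 active means replicate mean at a twofold rise or more, about +100% in these data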;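 further: firefly luciferase made from a UUG start codon reports start codon fidelity; reporter light over untreated wells divided by growth signal over untreated wells; some hits fall short of that in this replicate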
S100A4 inh HTS – S100A4-myosin IIA interaction inhibition; P26447; S100A4/TAMRA-MyoIIA peptide fluorescence polarization; inhibition, % at 10.7 µM; 0.14% of 360,000 active; AID 652163;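 active = mean inhibition of at least 70% across replicates, with every replicate also reaching that level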
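Material: S100A4 monomer (human). Medium: Calcium-containing HEPES buffer, pH 7.2. Probe or stimulus: labelled myosin peptide probe, 5 nM. Compound dosing: one concentration per compound. Timing: polarization read 5 min after assay mix addition, stable 5–60 min. Benchmarks: DMSO as neutral control, TFP as positive control.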
SIRT5 inh – sirtuin-5 (human) deacylase inhibition; Q9NXA8; Purified SirT5, succinyl-peptide AMC, trypsin-coupled fluorescence; inhibition, % at 15 µM; 1.1% of 330,000 active; in the data active = inhibition above about 15%
FGF22 binding – shifts melting point of recombinant human FGF22; Q9HCT0; recombinant FGF22 thermal shift, SYPRO orange fluorescence; percent of sucrose octasulfate shift, DMSO zero; activity (Tm shift, normalised), % at 9.99 µM; 1.5% of 340,000 active; AID 651658;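 active = mean Tm shift, scaled 0 neutral to 100 positive control, at about 1.3% or above, every replicate too, limit read from the data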
Yeast UUG start-2 – modulators of start codon recognition fidelity in yeast. shares compounds with Yeast UUG start-1. S. cerevisiae UUG-start firefly luciferase, luminescence, 4 h; 100% means double the DMSO signal. activation, % at 38 µM. 540 tested, under 10 active. AID 652061;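 active = signal increase whose fitted curve reaches an absolute level of 40 at a concentration under 10 µM; inactive = activity opposite to the expected increase, or the rest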
Active calls of the source: *; i = inactive; nt = no result given.

Start of the listing, in advance (3 entries):
Letters: A = ERp5 block; B = PDI turbidity; C = Yeast UUG start-1; D = S100A4 inh HTS; E = SIRT5 inh; F = FGF22 binding; G = Yeast UUG start-2
> C[C@@H]1CN([C@@H](C)CO)C(=O)Cc2cc(NC(=O)C3CCCCC3)ccc2O[C@H]1CN(C)C(=O)NC1CCCCC1
  A: 5.0 | B: nt | C: 46.6* | D: 1.9 | E: -1.2 | F: 0.0 | G: i
> C[C@H](CO)N1C[C@H](C)[C@@H](CN(C)C(=O)NC2CCCCC2)Oc2ccc(NC(=O)C3CCCCC3)cc2CC1=O
  A: 1.5 | B: nt | C: 14.8 | D: 9.1 | E: -1.3 | F: -0.1 | G: nt
> O=C(Cc1ccccc1)N1C[C@@H]2[C@H](c3ccccc31)[C@H](CO)N2C(=O)C1CCOCC1
  A: nt | B: nt | C: 4.3 | D: nt | E: nt | F: 0.9 | G: nt

Results (from the top)
Letters: A = ERp5 block; B = PDI turbidity; C = Yeast UUG start-1; D = S100A4 inh HTS; E = SIRT5 inh; F = FGF22 binding; G = Yeast UUG start-2
> C[C@@H]1CN([C@@H](C)CO)C(=O)Cc2cc(NC(=O)C3CCCCC3)ccc2O[C@H]1CN(C)C(=O)NC1CCCCC1
  A: 5.0 | B: nt | C: 46.6* | D: 1.9 | E: -1.2 | F: 0.0 | G: i
> C[C@H](CO)N1C[C@H](C)[C@@H](CN(C)C(=O)NC2CCCCC2)Oc2ccc(NC(=O)C3CCCCC3)cc2CC1=O
  A: 1.5 | B: nt | C: 14.8 | D: 9.1 | E: -1.3 | F: -0.1 | G: nt
> O=C(Cc1ccccc1)N1C[C@@H]2[C@H](c3ccccc31)[C@H](CO)N2C(=O)C1CCOCC1
  A: nt | B: nt | C: 4.3 | D: nt | E: nt | F: 0.9 | G: nt
> O=C(Cc1ccccc1)N1C[C@H]2[C@@H](c3ccccc31)[C@@H](CO)N2C(=O)C1CCOCC1
  A: -3.0 | B: nt | C: 116.0* | D: -41.3 | E: -0.7 | F: nt | G: i
> CCOc1ccc(C(=O)NCC(C)NC(=O)c2ccc(OCC)cc2)cc1 (stereo not drawn)
  A: 2.9 | B: 2.1 | C: 108.8* | D: 1.0 | E: -5.3 | F: -0.2 | G: 10.3
> COc1ccc(-c2oc(NC(=O)CCl)c(C#N)c2-c2ccc(OC)cc2)cc1
  A: nt | B: -0.2 | C: 308.3* | D: nt | E: nt | F: nt | G: 14.0
> COc1ccc(C(=O)c2cnc[nH]2)cc1
  A: 1.9 | B: -0.1 | C: 171.2* | D: 5.6 | E: -3.0 | F: -0.3 | G: 5.7
> CCN(CC)CCNC(=O)C(C)c1nn(C)c(=O)c2ccccc12 (stereo not drawn)
  A: nt | B: -2.0 | C: 5.2 | D: nt | E: nt | F: nt | G: -4.9
> CCCCn1nc(CC(=O)NCCN(CC)CC)c2ccccc2c1=O
  A: -0.5 | B: -2.5 | C: nt | D: -1.8 | E: 0.1 | F: 0.0 | G: -6.4
> O=C(c1ccc(F)cc1)N1CC(=O)N2[C@H](CO)[C@H](c3ccc(C#Cc4ccc(F)cc4)cc3)[C@H]2C1
  A: -12.7 | B: nt | C: nt | D: 2.6 | E: -1.6 | F: nt | G: nt
> COc1cccc(-c2ccc3c(c2)O[C@@H](CN(C)Cc2ccncc2)[C@@H](C)CN([C@H](C)CO)S3(=O)=O)c1
  A: 4.9 | B: nt | C: 165.8* | D: -21.0 | E: 4.1 | F: -0.2 | G: i
> CC(=O)N(C)C[C@@H]1Oc2cc(Br)ccc2S(=O)(=O)N([C@@H](C)CO)C[C@@H]1C
  A: 1.9 | B: nt | C: 63.2* | D: 4.0 | E: -1.5 | F: 0.1 | G: i
> C[C@H]1CN([C@@H](C)CO)S(=O)(=O)c2ccc(-c3ccccc3)cc2O[C@H]1CN(C)C(=O)CN(C)C
  A: 6.4 | B: nt | C: 2.9 | D: 17.9 | E: -3.8 | F: -0.2 | G: nt
> CC(=O)N(C)C[C@@H]1Oc2cc(-c3cccc(C#N)c3)ccc2S(=O)(=O)N([C@H](C)CO)C[C@H]1C
  A: 1.8 | B: nt | C: 66.3* | D: 4.1 | E: 6.3 | F: -0.3 | G: i
> C[C@H](CO)N1C[C@H](C)[C@H](CN(C)C(=O)CN(C)C)Oc2cc(-c3ccccc3)ccc2S1(=O)=O
  A: 1.5 | B: nt | C: 34.7* | D: -32.6 | E: -1.9 | F: -0.1 | G: i
> CC(=O)N(C)C[C@@H]1Oc2cc(Br)ccc2S(=O)(=O)N([C@H](C)CO)C[C@@H]1C
  A: 2.4 | B: nt | C: -5.7 | D: 0.6 | E: -1.7 | F: 0.0 | G: nt
> C[C@@H]1CN([C@@H](C)CO)C(=O)c2cccc(NC(=O)C3CCCCC3)c2O[C@H]1CN(C)C(=O)Nc1ccc(F)cc1
  A: -1.7 | B: nt | C: 8.9 | D: -12.8 | E: -3.4 | F: -0.1 | G: nt
> C[C@H]1CN([C@@H](C)CO)S(=O)(=O)c2ccc(-c3cccc(C(=O)N(C)C)c3)cc2O[C@@H]1CN(C)C(=O)Nc1ccc(F)cc1
  A: 3.4 | B: nt | C: 111.2* | D: 25.1 | E: 2.9 | F: -0.4 | G: i
> CC(C)c1cn(CC[C@@H]2CC[C@H](N)[C@@H](CO)O2)nn1
  A: -6.2 | B: nt | C: 193.5* | D: 2.3 | E: -3.1 | F: 0.1 | G: i
> CN(C)CC(=O)N[C@H]1CC[C@H](CCn2cc(CN(C)C)nn2)O[C@@H]1CO
  A: 0.3 | B: nt | C: -10.2 | D: 5.7 | E: -1.2 | F: 0.0 | G: nt
> COCc1cn(CC[C@@H]2CC[C@H](NC(=O)CCN3CCCCC3)[C@@H](CO)O2)nn1
  A: -7.8 | B: nt | C: 39.3* | D: -1.6 | E: -0.5 | F: 0.3 | G: i
> CCCNC(=O)N[C@H]1CC[C@H](CCn2cc(C3CC3)nn2)O[C@@H]1CO
  A: -13.8 | B: nt | C: 145.2* | D: -2.8 | E: 1.0 | F: -0.2 | G: i
> CN(C)Cc1cn(CC[C@H]2CC[C@@H](N)[C@H](CO)O2)nn1
  A: -0.6 | B: nt | C: -9.1 | D: -1.0 | E: -3.1 | F: 0.0 | G: nt
> CN(C)CC(=O)N[C@H]1CC[C@H](CCn2cc(CN(C)C)nn2)O[C@H]1CO
  A: -1.7 | B: nt | C: 190.7* | D: 10.3 | E: 1.1 | F: -0.1 | G: i
> COc1ccc(NC(=O)Nc2ccc3c(c2)C(=O)N([C@H](C)CO)C[C@@H](C)[C@H](CN(C)S(=O)(=O)c2cccs2)OCCCC[C@@H](C)O3)cc1
  A: -2.7 | B: nt | C: 12.7 | D: -10.1 | E: 6.3 | F: -0.4 | G: nt
> CC1(C)CC(=O)C2=C(C1)NC(=S)C(C#N)C21CCCCC1 (stereo not drawn)
  A: 5.7 | B: 5.4 | C: 109.7* | D: 3.6 | E: 3.0 | F: nt | G: 12.5
> CC1(C)CC(=O)C2=C(C1)NC(SCC(=O)Nc1ccccc1)=C(C#N)C21CCCCC1
  A: nt | B: -14.2 | C: -2.8 | D: nt | E: nt | F: nt | G: nt
> O=C(NCc1cccc(Cl)c1)c1ccc(-n2ccnc2)c2ccoc12
  A: 0.2 | B: -3.5 | C: 125.6* | D: -3.6 | E: nt | F: 0.3 | G: -7.2
> COc1ccc(CNC(=O)c2ccc(-n3ccnc3)c3ccoc23)cc1OC
  A: -5.4 | B: 9.1 | C: 177.4* | D: -6.4 | E: 4.8 | F: 0.0 | G: -3.4
> COc1ccccc1C#Cc1cnc2c(c1)C(=O)N([C@@H](C)CO)C[C@@H](C)[C@H](CN(C)S(=O)(=O)c1cn(C)cn1)O2
  A: -0.1 | B: nt | C: nt | D: 8.1 | E: 3.3 | F: 0.1 | G: nt
> C=CC[C@H](OC(=O)Nc1ccc(SC)cc1)c1ccc(OCCO)cc1
  A: 0.7 | B: nt | C: -1.1 | D: 4.0 | E: 5.8 | F: -0.5 | G: nt
> COc1ccc([C@@H](OC(=O)Nc2ccc(SC)cc2)[C@@H](CCO)OC)cc1O
  A: -3.4 | B: nt | C: 150.9* | D: 63.7 | E: 0.2 | F: -1.0 | G: i
> O=C(C[C@@H]1C=C[C@H](NC(=O)Nc2ccc3c(c2)OCO3)[C@H](CO)O1)NCc1ccc2c(c1)OCO2
  A: 4.8 | B: nt | C: 3.9 | D: 2.4 | E: -1.9 | F: -0.2 | G: nt
> Cn1c(Nc2ccc(F)cc2)nc2ccccc21
  A: -0.2 | B: 2.7 | C: -7.8 | D: -0.5 | E: nt | F: -0.5 | G: nt
> COc1ccc(Nc2nc3ccccc3n2C)cc1
  A: 2.7 | B: -0.5 | C: 0.1 | D: -0.8 | E: 5.0 | F: -0.2 | G: -12.8
> S=C(NCc1cccs1)Nc1ccccc1
  A: 6.3 | B: -0.5 | C: nt | D: 0.3 | E: -2.3 | F: 0.4 | G: nt
> Fc1ccc(NC(=S)NCc2cccs2)cc1
  A: nt | B: -13.3 | C: 253.3* | D: nt | E: nt | F: nt | G: -6.2
> Cc1cc(-n2c(C)cc(C(=O)CSc3nc4ccccc4c(=O)n3Cc3ccco3)c2C)no1
  A: nt | B: -1.3 | C: 684.7* | D: nt | E: nt | F: nt | G: 1.3
> COCCn1c(SCC(=O)c2cc(C)n(C)c2C)nc2ccccc2c1=O
  A: -2.3 | B: 11.3 | C: nt | D: 0.2 | E: -4.0 | F: -0.1 | G: -1.8
> O=C(CSc1nc2ccccc2c(=O)n1Cc1ccco1)c1ccccc1
  A: nt | B: 0.2 | C: -17.1 | D: nt | E: nt | F: nt | G: 1.7
> O=C(c1ccc(Cn2c(=O)[nH]c3ccccc3c2=O)cc1)N1CCN(c2ccccn2)CC1
  A: -0.1 | B: 10.6 | C: -3.3 | D: -1.1 | E: 0.9 | F: -0.1 | G: nt
> O=C(c1ccc(Cn2c(=O)[nH]c3ccccc3c2=O)cc1)N1CCN(c2ccccc2)CC1
  A: nt | B: 3.9 | C: 479.9* | D: nt | E: nt | F: nt | G: 14.7
